Data taken from PubChem BioAssay (NCI).
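Growth conditions: 96-well plates. Treatment: test compound, 48 hours, 5 concentrations. Analysis: linear interpolation between bracketing concentrations; unreached endpoints set to highest concentration. Abbreviation: GI50, concentration required for 50% inhibition of growth. TGI is the concentration that stops growth completely.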

What was measured:
Assay in all cases: inhibition of tumour cell growth, NCI panel, 48 h
[1] = test system: CAKI-1 renal
[2] = test system: MDA-MB-231 breast
[3] = test system: SN12C renal
[4] = test system: M14 melanoma
[5] = test system: HL-60(TB) leukemia
[6] = test system: K-562 leukemia
[7] = test system: MDA-MB-435
[8] = test system: MALME-3M melanoma
[9] = test system: BT-549 breast
[10] = test system: UACC-257 melanoma
[11] = test system: SK-OV-3 ovarian
[12] = test system: EKVX NSCLC
[13] = test system: NCI-H23 lung
[14] = test system: HS 578T breast
[15] = test system: LOX IMVI melanoma
[16] = test system: 786-0 renal
[17] = test system: SR leukemia
[18] = test system: OVCAR-4 ovarian
[19] = test system: HOP-62 NSCLC
[20] = test system: UO-31 renal
[21] = test system: RXF 393 renal
[22] = test system: NCI-H322M lung
[23] = test system: SW-620 colon
[24] = test system: T-47D breast
[25] = test system: PC-3 prostate
[26] = test system: SF-539 CNS
[27] = test system: CCRF-CEM leukemia
[28] = test system: MOLT-4 leukemia
[29] = test system: HT29 colon
[30] = test system: COLO 205 colon
[31] = test system: SNB-19 CNS
[32] = test system: NCI/ADR-RES ovarian
[33] = test system: SF-295 CNS
[34] = test system: A549 NSCLC
[35] = test system: ACHN renal
[36] = test system: UACC-62 melanoma
[37] = test system: SF-268 CNS
[38] = test system: SK-MEL-5 melanoma
[39] = test system: SK-MEL-2 melanoma
[40] = test system: KM12 colon
[41] = test system: OVCAR-3 ovarian
[42] = test system: HCT-116 colon
[43] = test system: DU-145 prostate
[44] = test system: HCT-15 colon
[45] = test system: OVCAR-5 ovarian
[46] = test system: MDA-N
[47] = test system: SNB-75 CNS
[48] = test system: IGROV1 ovarian
[49] = test system: TK-10 renal
[50] = test system: OVCAR-8 ovarian
[51] = test system: HCC-2998 colon
[52] = test system: HOP-92 NSCLC
[53] = test system: U251 CNS
[54] = test system: MCF7 breast
[55] = test system: A498 renal
[56] = test system: NCI-H226 lung
[57] = test system: NCI-H460 lung
[58] = test system: SK-MEL-28 melanoma
[59] = test system: RPMI-8226 leukemia
[60] = test system: NCI-H522 lung

Compound `FC1(F)SC2C(C1(F)F)C1(Cl)C(Cl)=C(Cl)C2(Cl)C1(Cl)Cl` (stereo not given) has a GI50 [1] of 2280 nM, a TGI [1] of 18.5 µM and a GI50 [2] of 5.9 µM. It also gave a TGI [2] of 25.6 µM, a GI50 [3] of 1070 nM and a TGI [3] of 19.1 µM. For the same compound, the GI50 [4] was 1310 nM, the TGI [4] was 4.72 µM and the GI50 [5] was 1710 nM. It also gave a TGI [5] of 12.4 µM, a GI50 [6] of 1340 nM and a TGI [6] of 13.7 µM. It also gave a GI50 [7] of 2330 nM, a TGI [7] of 15.1 µM and a GI50 [8] of 1110 nM. It also gave a TGI [8] of 5.09 µM, a GI50 [9] of 113 nM and a TGI [9] of 14.1 µM. The GI50 [10] was 2050 nM, the TGI [10] was 9.16 µM and the GI50 [11] was 5.73 µM. The TGI [11] was 14.2 µM, the GI50 [12] was 1370 nM and the TGI [12] was 14.3 µM. It also gave a GI50 [13] of 1420 nM, a TGI [13] of 13.1 µM and a GI50 [14] of 515 nM. For the same compound, the TGI [14] was 10.5 µM, the GI50 [15] was 2530 nM and the TGI [15] was 11.6 µM. The GI50 [16] was 1530 nM, the TGI [16] was 17.2 µM and the GI50 [17] was 1990 nM. It also gave a TGI [17] of 12.9 µM, a GI50 [18] of 5.59 µM and a TGI [18] of 20.8 µM. It also gave a GI50 [19] of 8.94 µM, a TGI [19] of 21.9 µM and a GI50 [20] of 724 nM. For the same compound, the TGI [20] was 14.4 µM, the GI50 [21] was 35.1 nM and the TGI [21] was 2220 nM. It also gave a GI50 [22] of 4.39 µM, a TGI [22] of 12.3 µM and a GI50 [23] of 433 nM. For the same compound, the TGI [23] was 10.1 µM, the GI50 [24] was 1030 nM and the TGI [24] was 13.7 µM. The GI50 [25] was 1860 nM, the TGI [25] was 16.4 µM and the GI50 [26] was 5.19 µM. It also gave a TGI [26] of 21.9 µM, a GI50 [27] of 1340 nM and a TGI [27] of 7.61 µM. It also gave a GI50 [28] of 893 nM, a TGI [28] of 8.04 µM and a GI50 [29] of 1330 nM. For the same compound, the TGI [29] was 13.9 µM, the GI50 [30] was 1430 nM and the TGI [30] was 6.24 µM. It also gave a GI50 [31] of 2490 nM, a TGI [31] of 18.2 µM and a GI50 [32] of 1310 nM. For the same compound, the TGI [32] was 20.6 µM, the GI50 [33] was 509 nM and the TGI [33] was 14.9 µM. The GI50 [34] was 315 nM, the TGI [34] was 17.7 µM and the GI50 [35] was 552 nM. For the same compound, the TGI [35] was 14.9 µM, the GI50 [36] was 2470 nM and the TGI [36] was 8.33 µM. For the same compound, the GI50 [37] was 1860 nM, the TGI [37] was 22.1 µM and the GI50 [38] was 485 nM. The TGI [38] was 5.47 µM, the GI50 [39] was 2670 nM and the TGI [39] was 22.5 µM. It also gave a GI50 [40] of 2980 nM, a TGI [40] of 17.3 µM and a GI50 [41] of 151 nM. For the same compound, the TGI [41] was 6.83 µM, the GI50 [42] was 101 nM and the TGI [42] was 11.3 µM. It also gave a GI50 [43] of 2180 nM, a TGI [43] of 18.2 µM and a GI50 [44] of 451 nM. For the same compound, the TGI [44] was 17.5 µM, the GI50 [45] was 1900 nM and the TGI [45] was 13.8 µM. For the same compound, the GI50 [46] was 10.6 µM, the TGI [46] was 28 µM and the GI50 [47] was 539 nM. The TGI [47] was 15 µM, the GI50 [48] was 1550 nM and the TGI [48] was 17.1 µM. It also gave a GI50 [49] of 7.36 µM, a TGI [49] of 22 µM and a GI50 [50] of 2310 nM. The TGI [50] was 18.8 µM, the GI50 [51] was 1370 nM and the TGI [51] was 19.8 µM. The GI50 [52] was 31.7 nM, the TGI [52] was 366 nM and the GI50 [53] was 140 nM. The TGI [53] was 15.3 µM, the GI50 [54] was 463 nM and the TGI [54] was 14.5 µM. The GI50 [55] was 48.2 nM, the TGI [55] was 2800 nM and the GI50 [56] was 7.73 µM. For the same compound, the TGI [56] was 29 µM, the GI50 [57] was 2210 nM and the TGI [57] was 18.9 µM. For the same compound, the GI50 [58] was 7.96 µM, the TGI [58] was 22.3 µM and the GI50 [59] was 2460 nM. For the same compound, the TGI [59] was 15.1 µM, the GI50 [60] was 3.43 µM and the TGI [60] was 21.2 µM.
